# Source: PubChem BioAssay AID602140 (NMMLSC, 2011)
# This is a selection; strong and weak results do not stand in their true shares. Some results for these compounds are left out of this collection, so the calls shown say nothing about other tests. Calls of active or inactive are those of the source. How the calls were made is not given here.
# Tested on: Botulinum neurotoxin type F light chain protease (Clostridium botulinum)
# Test: BoNT/F light chain protease inhibitors, confirmation, biochemical, flow cytometry, cherry pick 1 (AID 602140)
# Conditions: multiplex microsphere protease cleavage assay, at 10 µM, stronger effect = higher value
smiles,measurement,value
CN1[C@@H]2CC[C@H]1CC(OC(=O)C(O)(c1ccccc1)c1ccccc1)C2 (stereo partly specified),inhibition,inactive: 0.4%
